Laboratory results: ChEMBL document CHEMBL5053503 (2021)

Legend:
[1] = format: ADME, organism-based, Sprague-Dawley; details: rat, in vivo, iv
[2] = format: ADME, organism-based, Sprague-Dawley; details: rat, in vivo, iv; remark: listed apart in the source

Work on `C=C[C@H]1CN2CCc3c([nH]c4cccc(OC)c34)[C@@H]2C[C@@H]1/C(=C\OC)C(=O)OC` yielded a Vz [1] of 71.9 L/kg and a CL [2] of 88.3 mL/min/kg.
